Here are results for one substance from patent US12083102B2, “Method for treating inflammatory disorders” (DIMERIX BIOSCIENCE PTY LTD, priority 2011, dated 2024).

The chains behind the UniProt entries cited, without tags or fusion partners. Where a name states a change or a piece, a line headed by the entry shows the natural chain unless it says otherwise.
UniProt P41597: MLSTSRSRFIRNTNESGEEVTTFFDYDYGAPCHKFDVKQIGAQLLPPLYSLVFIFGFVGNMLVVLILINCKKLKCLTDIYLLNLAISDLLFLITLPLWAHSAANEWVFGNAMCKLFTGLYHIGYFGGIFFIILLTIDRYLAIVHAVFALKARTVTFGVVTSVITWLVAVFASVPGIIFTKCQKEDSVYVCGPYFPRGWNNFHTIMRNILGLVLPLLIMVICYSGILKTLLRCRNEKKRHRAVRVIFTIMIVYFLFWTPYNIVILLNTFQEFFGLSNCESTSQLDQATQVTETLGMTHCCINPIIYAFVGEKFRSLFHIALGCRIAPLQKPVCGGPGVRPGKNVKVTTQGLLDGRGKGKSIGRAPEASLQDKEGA

The target of this assay is Gαi1-Rluc8 and CCR2-YFP (Homo sapiens, UniProt P41597). Put plainly: Gαi1 coupling, ligand-induced BRET, absence of AT1R (Example 7, top panel). It counts as cell-based. The following applies: HEK293FT cells; various concentrations of MCP-1; FIG. 9.

As to “MCP-1: Monocyte chemotactic protein-1, also known as monocyte chemoattractant protein-1”, the “change in BRET between Gαi1-Rluc8 and CCR2-YFP (receptor activation and coupling to Gαi1)” value is reported as “in a dose-dependent manner”.
